Measured values published in PubChem BioAssay AID720488 (Milwaukee Institute for Drug Discovery, 2013).
The list shows a part of the results, in another mix than the full data. Some of these compounds have results that are not shown, active ones among them. Activity calls are given as the source filed them.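 The calls were made as follows: active = compound fluorescence over control fluorescence at most 0.8, a quencher, or at least a set upper limit, an enhancer; inactive = ratio between 0.8 and the set upper limit.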

Assay: Cy5 fluorescence quenchers or enhancers, artefact control for HCV NS3 helicase inhibitor project, biochemical, ChemBridge library, Cy5 readout (AID 720488)
Settings: Cy5-dT15 DNA with NS3h, at 100 µM, actives lie on both sides, signal over control mean, under 1 quenches

Compound	fluorescence interference ratio
COc1ccc(OC)c(C=C(C#N)C#N)c1	inactive: 0.998
